Results taken from PubChem BioAssay (Tox21).
The entries are a selection whose mix differs from that of the whole data set. Results filed as inconclusive are left out. The source made the active and inactive calls. The call rests on the fitted dose curve; in most records, active means well fitted activation curve with a large enough effect in the repeat runs; inconclusive means weak or mixed curves; inactive means flat fitted curve, though single readings scatter.
On the % scale 0 is the no-effect control and ±100 the full control effect; potency means the concentration at half of the fitted maximal effect.

Assay: A CellTox Green Cytotoxicity Assay to monitor cytotoxicity in HepG2 cells - 32 hour (AID 1224883); further: nearly all actives have a fitted effect of over 50% in size
Conditions: CellTox Green fluorescence; series mostly up to 76.8 µM; cytotoxicity increase: at the top concentration
Excerpt: National Center for Advancing Translational Sciences [NCATS]
NIH Chemical Genomics Center [NCGC]
U.S. Environmental Protection Agency [EPA]
National Institutes of Environmental Health Sciences [NIEHS]
National Toxicology Program [NTP]
Cell-based models are critical for drug discovery. Determining the natural cytotoxic effects resulting from test compounds is an essential research activity. A CellTox Green Cytotoxicity Assay to monitor cytotoxicity in real time of continues cell culture during 40 hours of the compound treatment was used to screen Tox21 10K library compounds in HepG2 cells. CellTox Green Cytotoxicity Assay is a nonlytic, homogeneous, biofluorescent method to measure cytotoxicity in cell culture after experimental manipulation. The assay system uses a proprietary asymmetric cyanine dye that is excluded from viable cells but preferentially stains the dead cell's DNA. […] Viable cells produce no appreciable increases in fluorescence. Therefore, the fluorescence signal produced by the binding interaction with dead cell DNA is proportional to cytotoxicity.
The mixture of HepG2 cell suspension and reagents were dispensed at 600cells/6 ul/well in 1536-well tissue culture treated black solid bottom plates using a Multidrop dispenser. After the assay plates were incubated at a 37 C/5% CO2 incubator for 5 hours, 23 nL of compounds dissolved in DMSO, positive and negative controls was transferred to the assay plate by a pintool work station. The plates were incubated at 37 C for 40 hours. The fluorescence intensity were measured at 0h, 8h, 16h, 24h, 32h and 40h time points using ViewLux plate reader during compound treatment.
For `O=[p+]1oc2ccccc2c2ccccc21` (centres undefined), the “cytotoxicity increase” value was inactive: 6.7%.
With `CCCCC(CC)CO[P+](=O)OCC(CC)CCCC` (centres undefined) the “cytotoxicity increase” value was inactive: 5.65%.
With `CCOP(=S)(CC)Sc1ccccc1` (centres undefined) the “cytotoxicity increase” value was inactive: -7.12%.
With `O=C(Cl)Oc1ccccc1` the “cytotoxicity increase” value was inactive: -7.04%.
With `CCCCOP(OCCCC)OCCCC` the “cytotoxicity increase” value was inactive: -17.3%.
In the case of `CC(C)CCCCCCCOP(OCCCCCCCC(C)C)Oc1ccccc1`, the Potency is reported as active: 61.6 µM.
With `O=[N+]([O-])c1ccc(S(=O)(=O)O)c([N+](=O)[O-])c1` the “cytotoxicity increase” value was inactive: -8.04%.
With `O=[N+]([O-])c1ccc([N+](=O)[O-])cc1` the “cytotoxicity increase” value was inactive: -31.6%.
With `CN(N=O)C(=N)N[N+](=O)[O-]` the “cytotoxicity increase” value was inactive: 8.9%.
For `O=C(Cl)OCCOC(=O)Cl`, the “cytotoxicity increase” value was inactive: -6.49%.
In the case of `CCCCO[P+](=O)OCCCC`, the Potency is reported as “inactive”.
In the case of `NC(=O)Nc1ccc([As](=O)(O)O)cc1`, the Potency is reported as “inactive”.
With `CN(C(=O)Cc1ccc(Cl)c(Cl)c1)[C@H]1CC[C@@]2(CCCO2)C[C@@H]1N1CCCC1` the “cytotoxicity increase” value was inactive: 3.9% [at 35.3 µM].
For `COC(=O)Cl`, the “cytotoxicity increase” value was inactive: -3.08%.
In the case of `ClP(Cl)c1ccccc1`, the “cytotoxicity increase” value is reported as inactive: -12.3%.
In the case of `CCC(C)(OOC(C)(C)C)OOC(C)(C)C`, the cytotoxicity increase is reported as inactive: -23.7% [at 15.8 µM].
With `O=P(Cl)(Cl)c1ccccc1` the “cytotoxicity increase” value was inactive: -11.8%.
With `O=P(Cl)(Oc1ccccc1)Oc1ccccc1` the “cytotoxicity increase” value was inactive: -8.65%.
In the case of `CN(C(=O)Cc1ccccc1)[C@H]1CC[C@@]2(CCCO2)C[C@@H]1N1CCCC1`, the “cytotoxicity increase” value is reported as inactive: 22.3% [at 35.3 µM].
With `Cc1cc([N+](=O)[O-])c(O)c([N+](=O)[O-])c1` the “cytotoxicity increase” value was inactive: -9.38%.
With `CCNC(C)Cc1ccc2c(c1)OCO2` (centres undefined) the “cytotoxicity increase” value was inactive: 0.262%.
With `O=[P+](Oc1ccccc1)Oc1ccccc1` the “cytotoxicity increase” value was inactive: -3.43%.
With `CC(C)OP(=S)(OC(C)C)SCCNS(=O)(=O)c1ccccc1` the “cytotoxicity increase” value was inactive: 1.91%.
In the case of `CN(C(=O)Cc1cccc2occc12)[C@H]1CC[C@@]2(CCCO2)C[C@@H]1N1CCCC1`, the “cytotoxicity increase” value is reported as inactive: -2.01%.
